Conditions: dogs; some mid- and high-dose animals

SMILES: N#Cc1ccc(O[C@H]2CC[C@H](NC(=O)c3ccc(N4CCC(CN5CCN(c6cc7c(cc6F)C(=O)N(C6CCC(=O)NC6=O)C7=O)CC5)CC4)nn3)CC2)cc1Cl (stereo partly shown) [Compound (I-g)]
- liver function enzymes: Reversible liver function enzyme elevation, which is considered non-adverse

Reference: patent publication US20250248999A1 (published 2025)
